Consider 1 molecule from patent publication US10336729B2, “4-cyano-benzyl carbamimidoylcarbamate derivatives and their use as AOC3 inhibitors” (Boehringer Ingelheim International GmbH, priority 2016, dated 2019).

Sequences of proteins named here, by UniProt entry; tags and fusion partners are left off.
UniProt Q16853, whole entry: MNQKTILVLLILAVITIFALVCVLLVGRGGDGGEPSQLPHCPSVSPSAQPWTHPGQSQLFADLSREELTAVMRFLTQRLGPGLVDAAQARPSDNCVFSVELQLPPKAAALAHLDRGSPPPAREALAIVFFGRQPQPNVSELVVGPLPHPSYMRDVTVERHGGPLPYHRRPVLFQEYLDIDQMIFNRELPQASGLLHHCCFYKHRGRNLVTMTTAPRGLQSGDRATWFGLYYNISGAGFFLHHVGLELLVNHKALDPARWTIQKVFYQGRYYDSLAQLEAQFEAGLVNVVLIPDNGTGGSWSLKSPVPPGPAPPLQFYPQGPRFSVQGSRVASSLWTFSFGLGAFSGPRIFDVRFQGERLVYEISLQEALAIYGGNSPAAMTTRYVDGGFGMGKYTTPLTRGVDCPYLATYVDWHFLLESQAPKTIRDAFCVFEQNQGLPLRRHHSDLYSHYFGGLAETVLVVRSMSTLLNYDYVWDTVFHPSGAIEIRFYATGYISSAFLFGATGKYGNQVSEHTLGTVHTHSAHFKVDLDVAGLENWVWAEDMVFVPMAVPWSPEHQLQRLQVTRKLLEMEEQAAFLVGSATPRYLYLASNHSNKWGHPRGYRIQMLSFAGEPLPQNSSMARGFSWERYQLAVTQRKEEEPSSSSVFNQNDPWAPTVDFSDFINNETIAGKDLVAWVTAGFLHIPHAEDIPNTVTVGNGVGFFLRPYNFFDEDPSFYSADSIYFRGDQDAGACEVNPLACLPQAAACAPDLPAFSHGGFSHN

This assay has as its target AOC3 (Homo sapiens (Human), UniProt Q16853). Kind of assay: MAO-Glo AOC3 assay. The note with it: read-out: AOC3 IC50, recombinant CHO cells overexpressing AOC3 enzyme. An excerpt: The MAO-Glo™ Assay (commercial available from PROMEGA, #V1402) provides a sensitive method for the measurement of monoamine oxidase (MAO) activity (Valley, M. P. et al., 2006, Anal. Biochem. 359: 238-246) from a variety of tissues, biofluids or recombinant expressed or purified enzymes. As substrate a derivate of the beetle luciferin ((4S)-4,5-dihydro-2-(6-hydroxybenzothiazolyl)-4-thiazole-carboxylic acid) is used, which is oxidized at a primary amine moiety. After a spontaneous elimination and a catalyzed esterase reaction, the turnover of the luciferine by the luciferase is recorded as a signal of AOC3 activity.
For the determination of AOC3 activity or compound inhibition potency, the compound inhibitors are dissolved in DMSO and adjusted to the respective assay concentration with reaction buffer (50 mM HEPES, 5 mM KCl, 2 mM CaCl2), 1.4 mM MgCl2, 120 mM NaCl, 0.001% (v/v) Tween 20, 100 μM TCEP, pH 7.4). An aliquot of 3 μL of the compound dilution is added to a 384 well plate (Optiplate, PS, flat bottom, white, PERKIN ELMER, #6007290) with a final DMSO concentration of 6.6%. Recombinant CHO cells, overexpressing the human (1500 cells/well), mouse (1000 cells/well) or rat (500 cells/well) AOC3 enzyme are diluted in reaction buffer and added in a volume of 15 μL to the wells. […]

In general, IC50 refers to the point on the concentration scale where inhibition reaches its midpoint. As for `N#Cc1ccc(COC(=O)NC(=N)N)c(F)c1N1CC(c2ccc(OCC3CC3)cc2)C1`, the IC50 stood at 0.204 µM.
